Values quoted from earlier work, collected in patent publication US20160281133A1, “STABILIZATION AND ISOLATION OF EXTRACELLULAR NUCLEIC ACIDS” (QIAGEN GMBH, priority 2013, published 2016).

Test system: protein tyrosine phosphatase
Conditions: cited from earlier work

Compound: O=[As]c1ccccc1 (stereo not shown)
- IC50: 18 µM
